The values that follow are results of earlier work, collected in patent US7399743B2, “Targeted thrombosis” (The Scripps Research Institute, priority 2001, dated 2008).

Usually Ki stands for a dissociation constant, usually derived from enzyme kinetics or from competition with a known ligand.

The data set has as its target NAALADase. The conditions noted are these: read-out: Ki, inhibition of NAALADase activity; cited from earlier work.

As for Asp-β-linked-L-Glutamate (DE) [D-β-E], the Ki is 700 nM.
